Biological target: Neutrophil collagenase (Homo sapiens, UniProt P22894)
Assay: Inhibition of human MMP8 using (7-methoxycoumarin-4-yl)acetyl-Pro-Leu-Gly-Leu-(3-(2,4-dinitrophenyl)-L-2,3-diamino-propionyl)Ala-Arg-NH2 as substrate preincubated for 30 mins followed by substrate addition and measured by fluorescence assay

By UniProt entry, the sequences of proteins in these tests, tags left out. Where a name states a change or a piece, a line headed by the entry shows the natural chain unless it says otherwise.
UniProt P22894: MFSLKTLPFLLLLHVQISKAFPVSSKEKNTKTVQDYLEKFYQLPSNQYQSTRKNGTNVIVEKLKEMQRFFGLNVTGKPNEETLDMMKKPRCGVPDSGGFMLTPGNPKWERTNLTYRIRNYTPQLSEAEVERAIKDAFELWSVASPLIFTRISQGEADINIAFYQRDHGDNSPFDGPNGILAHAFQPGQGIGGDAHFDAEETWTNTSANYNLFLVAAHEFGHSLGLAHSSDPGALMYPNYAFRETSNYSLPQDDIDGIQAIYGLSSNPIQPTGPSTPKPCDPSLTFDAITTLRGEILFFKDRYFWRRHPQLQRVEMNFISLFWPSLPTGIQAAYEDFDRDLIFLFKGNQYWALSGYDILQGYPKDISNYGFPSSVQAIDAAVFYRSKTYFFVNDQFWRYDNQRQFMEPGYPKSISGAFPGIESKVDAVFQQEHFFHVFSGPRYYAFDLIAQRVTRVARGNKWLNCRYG

IC50: 0.011 µM
SMILES: COc1ccc(S(=O)(=O)N(Cc2cccnc2)[C@@H](C(=O)NO)C(C)C)cc1

Reference: ChEMBL document CHEMBL4392848, “Proline-based hydroxamates targeting the zinc-dependent deacetylase LpxC: Synthesis, antibacterial properties, and docking studies” (Bioorg Med Chem, 2019)
